Source: patent US8598120B2 (Amylin Pharmaceuticals, LLC, priority 2004, dated 2013)

assay: Food intake assay in overnight fasted mice; type: in vivo; settings: 25 nmol/kg intraperitoneal, 30 min
Protocol: Female NIH/Swiss mice (8-14 weeks old) were group housed with a 12:12 hour light:dark cycle. Water and a standard pelleted mouse chow diet are available ad libitum, except as noted. Animals are fasted starting at approximately 1500 hrs, 1 day prior to experiment.
The effects of treatment on food intake are expressed as % change relative to control.

Substance	cumulative food intake compared to vehicle, 30 min [%]
CNTATCVLGRLSQELHRLQTYPRTNTGSNT [Compound 89]	−6
CNTATCVLGRLSQELHRLQTYPRTNTGSNTY [Compound 70]	−76
Isocaproyl-CNTATCVLGRLSQELHRLQTYPRTNTGSNTY (N-isocaproyl cap) [Compound 80]	−32
N-isocaproyl-KCNTATCVLGRLSQELHRLQTYPRTNTGSNTY (N-isocaproyl cap) [Compound 73]	−51
SCNTATCVLGRLSQELHRLQTYPRTNTGSNTY [Compound 102]	−58

same assay, conditions: 25 nmol/kg intraperitoneal, 60 min

Substance	cumulative food intake compared to vehicle, 60 min [%]
CNTATCVLGRLSQELHRLQTYPRTNTGSNT [Compound 89]	−13
CNTATCVLGRLSQELHRLQTYPRTNTGSNTY [Compound 70]	−64
Isocaproyl-CNTATCVLGRLSQELHRLQTYPRTNTGSNTY (N-isocaproyl cap) [Compound 80]	−28
N-isocaproyl-KCNTATCVLGRLSQELHRLQTYPRTNTGSNTY (N-isocaproyl cap) [Compound 73]	−31
SCNTATCVLGRLSQELHRLQTYPRTNTGSNTY [Compound 102]	−53

same assay, conditions: 25 nmol/kg intraperitoneal, 120 min

Substance	cumulative food intake compared to vehicle, 120 min [%]
CNTATCVLGRLSQELHRLQTYPRTNTGSNT [Compound 89]	−22
CNTATCVLGRLSQELHRLQTYPRTNTGSNTY [Compound 70]	−47
Isocaproyl-CNTATCVLGRLSQELHRLQTYPRTNTGSNTY (N-isocaproyl cap) [Compound 80]	−22
N-isocaproyl-KCNTATCVLGRLSQELHRLQTYPRTNTGSNTY (N-isocaproyl cap) [Compound 73]	−23
SCNTATCVLGRLSQELHRLQTYPRTNTGSNTY [Compound 102]	−45

same assay, conditions: 25 nmol/kg intraperitoneal, 180 min

Substance	cumulative food intake compared to vehicle, 180 min [%]
CNTATCVLGRLSQELHRLQTYPRTNTGSNT [Compound 89]	−20
N-isocaproyl-KCNTATCVLGRLSQELHRLQTYPRTNTGSNTY (N-isocaproyl cap) [Compound 73]	−28
